Laboratory results as given in ChEMBL document CHEMBL1132796, “Multistep solution-phase parallel synthesis of spiperone analogues” (Bioorg Med Chem Lett, 2000).

Sequences of proteins named here, by UniProt entry; tags and fusion partners are left off.
UniProt P28223, whole entry: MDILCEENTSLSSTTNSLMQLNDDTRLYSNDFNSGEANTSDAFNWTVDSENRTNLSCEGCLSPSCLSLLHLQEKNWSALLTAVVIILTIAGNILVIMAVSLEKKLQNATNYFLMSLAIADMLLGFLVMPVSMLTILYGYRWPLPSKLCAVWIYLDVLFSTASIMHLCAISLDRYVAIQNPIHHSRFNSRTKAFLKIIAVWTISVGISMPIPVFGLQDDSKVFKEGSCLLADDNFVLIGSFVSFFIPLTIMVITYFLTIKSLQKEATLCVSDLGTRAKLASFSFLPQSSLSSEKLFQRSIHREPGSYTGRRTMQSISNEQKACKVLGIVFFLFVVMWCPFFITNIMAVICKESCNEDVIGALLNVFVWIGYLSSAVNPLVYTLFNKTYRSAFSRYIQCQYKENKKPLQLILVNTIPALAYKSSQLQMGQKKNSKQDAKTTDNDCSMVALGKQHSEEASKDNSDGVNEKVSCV

Target: 5-hydroxytryptamine receptor 2A (Homo sapiens, UniProt P28223)
Assay: Compound was evaluated for its inverse agonist activity against 5-hydroxytryptamine 2A receptor
Format: functional

O=C1NCN(c2ccccc2)C12CCN(CCCOc1ccc(F)cc1)CC2 [SPIRAMIDE]
IC50: 316 pM
